High-throughput results as filed in PubChem.
MmCpn inh = Inhibitors of TCP-1 ring complex (TRiC) of Methanococcus maripaludis (MmCpn): qHTS; actives 0.031% (n = 330,000); purified Mm-Cpn ATPase, ADP Transcreener TR-FRET; Chaperonin Mm-Cpn (Methanococcus maripaludis); Potency, µM (series often up to 76.9 µM), inactives show at the highest dose activity, negative = inhibition, usual class: inhibitors; active = well fitted inhibition curve with a large enough effect; inconclusive = small, poorly fitted or top-dose-only effect; also: potency is read from the fitted curve at half-maximal effect; % is scaled to controls: 0 for no effect and ±100 for the full control effect; nearly all actives have a fitted effect of over 80% in size
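Quantitative HTS used 25 nM Mm-CPN and 10 uM ATP in magnesium/KCl Tris buffer, pH 7.4, with 1 mM DTT. Hydrolysis ran 30 min at 37°C; ADP was read by HTRF.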
KCNH2 3.1 inh = qHTS for Inhibitors of KCHN2 3.1: Mutant qHTS. activity change, % (tested at about 1.8 µM). AID 720553, 2013. actives 0.95% (n = 340,000). U2OS KCNH2 3.1, thallium flux FluxOr; active compounds read low;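 active = maximum activity change below -70%; inconclusive = maximum activity change from -70% to -50%; inactive = maximum activity change above -50%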;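 also: thallium influx rate constant from kinetic fluorescence after stimulation buffer; % is scaled to controls: 0 for no effect and ±100 for the full control effect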
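Thallium flux read-out: FluxOr dye with Red40 quencher in HBSS/HEPES, 45 min at RT. Rate constants from kinetic reads were normalized to positive and negative DMSO controls. Cells: U2OS virally expressing the 3.1 isoform.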
hERG WT inh = qHTS for Inhibitors of KCHN2 3.1: Wildtype qHTS. Voltage-gated inwardly rectifying potassium channel KCNH2 (Homo sapiens), Q12809. U2OS, BacMam KCNH2, thallium flux FluxOr; active compounds read low. activity change, % at 1.84 µM. actives 0.37% (n = 340,000);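 active = maximum activity change below -70%; inconclusive = maximum activity change between -70% and -50%; inactive = maximum activity change above -50%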; also: % is scaled to controls: 0 for no effect and ±100 for the full control effect
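U2OS cells were transduced with wild-type KCNH2 virus (2.03 x 10^8 / mL) for 4 h at room temperature, then cultured overnight at 37 C. Thallium flux was read with FluxOr dye. Rate constants were normalized to DMSO controls.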
Rango release inh = qHTS Assay for Inhibitors of RanGTP induced Rango (Ran-regulated importin-beta cargo) - Importin beta complex dissociation | Biochemical FRET Rango-importin beta, RanGTP-induced dissociation | Potency, µM (titrated, usually from 46.1 µM), for inactives: at the top dose activity change, negative = inhibition | actives 0.071% (n = 340,000); also: potency is read from the fitted curve at half-maximal effect; % of control where 0% means no effect; nearly all actives have a fitted effect of over 45% in size
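Rango/importin beta premix (0.1/0.25 uM final), PBS + 1 mM DTT + 0.02% Tween-20 + 0.1% BSA; cpd 5 min RT; FRET pre-read; + RanGTP-RCC1 (0.6 uM Ran, 2 mM GTP, 0.2 uM RCC1); 45 min RT; FRET post-read, ex 430, em 486/530 nm.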
Rango complex inh = qHTS Assay for Inhibitors of Rango (Ran-regulated importin-beta cargo) - Importin beta complex formation; Rango CFP/YFP FRET sensor + importin beta, 45 min; Potency, µM (series often up to 92.2 µM), for the others: at the highest dose inhibition of complex formation; actives 0.031% (n = 340,000);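 also: potency is read from the fitted curve at half-maximal effect; 0% = DMSO wells and 100% = buffer wells lacking importin beta; nearly all actives have a fitted effect of over 15% in size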
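Inhibition scored from the CFP 486 nm/YFP 530 nm FRET ratio 45 min after adding 0.125 microM importin beta to 50 nM Rango biosensor preincubated 5 min with compound (room temperature, PBS with DTT, Tween-20, BSA). No-importin wells as positive control.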
CCT chaperon mod = High-Throughput Screening for Modulators of Cytosolic Chaperonin Activity. purified chaperonin ATPase assay, HTRF ADP detection, 30 min. activity change, % (concentration not given with the values), hits read low. actives 0.3% (n = 360,000); in the data active = activity change below about -30%; also: % is scaled to controls: 0 for no effect and ±100 for the full control effect
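ATPase activity: ADP formed was measured by HTRF Transcreener (665/615 nm ratio) after 30 min at 37 deg C with 10 uM ATP. Compounds screened at one 76 uM concentration against 40 or 20 nM TRiC in Tris pH 7.4/KCl/MgCl2/DTT buffer.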
Active calls of the source: *; u = inconclusive; x = no result given. Compounds with a hit are over-represented: about 1.4% of the library has one in this group of screens. Unless noted, calls follow the shape of the full dose curve.

cpd	canonical_smiles	Rango release inh	Rango complex inh	CCT chaperon mod	MmCpn inh	KCNH2 3.1 inh	hERG WT inh
1	O=S1(=O)CC(O)C(N2CCCCC2)C1 (centres undefined)	6.8%	-0.3%	-5.3	-0.8%	-0.4	-11.1
2	Brc1ccc(-c2nc3ccccc3s2)s1	-8.1%	-0.2%	0.3	39.8µM*	3.1	7.6
3	Nc1ccc(-c2nc3ccccc3s2)cn1	-16.0%	1.4%	-0.7	u	9.6	-11.5
4	CCN1CCN(c2ccc(S(=O)(=O)N3CCOCC3)cc2NC(=O)/C=C/c2ccc([N+](=O)[O-])cc2)CC1	-6.4%	3.2%	1.0	-0.4%	-74.8*	-6.8
5	O=[N+]([O-])c1ccc(N2CCN(Cc3ccccc3)CC2)c(S(=O)(=O)N2CCOCC2)c1	-8.9%	0.1%	2.4	0.8%	-73.0*	-43.2
6	C[C@@H]1CN([C@@H](C)CO)C(=O)c2cc(Br)cnc2O[C@@H]1CN(C)Cc1ccc(Oc2ccccc2)cc1	x	x	-2.2	x	-14.1	-2.8
7	N=c1sccn1CC(=O)Nc1cccc(S(=O)(=O)N2CCCCCC2)c1	0.0%	0.4%	-1.0	0.2%	-70.9*	x
8	O=C(N/N=C1/SCC(=O)N1Cc1ccco1)c1ccccc1F	0.7%	-0.1%	0.0	-4.2%	9.4	1.2
9	CN1CCN(CC(=O)Nc2c(C(=O)c3ccccc3)oc3ccccc23)CC1	17.6%	3.9%	-3.2	-0.7%	-105.5*	-100.8*
10	O=S(=O)(Cc1ccccc1Cl)c1ncn[nH]1	0.0%	-2.2%	-1.2	0.7%	-156.4*	-129.8*
11	O=S(=O)(Cc1c(F)cccc1Cl)c1ncn[nH]1	6.3%	4.7%	-0.9	3.0%	3.0	-4.4
12	CCOC(=O)c1sc2c(c1C)c(=O)n(Cc1ccccc1)c(=O)n2CCN(C)C	u	-5.7%	-0.8	1.9%	-109.4*	18.7
13	COc1c(OC(C)=O)c(=O)n2c3ccccc3c3ccnc1c32	0.4%	20.6µM*	1.0	0.0%	6.6	6.4
14	O=C(c1cccnc1)N1CCc2ccccc21	-0.5%	-1.9%	0.5	-4.4%	3.5	-10.5
15	O=C(c1cccnc1)N1CCc2ccccc2C1	13.7%	1.1%	0.1	56.2µM*	-16.3	14.7
16	O=C(NC1CCCCC1)c1cc([N+](=O)[O-])[nH]n1	-9.4%	-5.2%	2.5	0.5%	0.7	0.0
17	CCOC(=O)N1CCN(C(=O)COC(=O)c2ccc(Cl)nc2)CC1	-11.1%	0.5%	0.2	-1.7%	3.3	2.0
18	CC(=O)c1ccc(N2CCN(c3ccc(C(F)(F)F)cn3)CC2)cc1	-12.9%	-0.4%	0.3	-9.1%	-200.0*	-138.8*
19	O=C(CCCc1ccccc1)c1ccccc1	1.2%	u	-1.8	1.5%	-7.1	-3.3
20	CCN(CCCC(=O)c1ccc(F)cc1)CCc1ccccc1	3.8%	0.7%	0.3	-0.3%	-90.1*	u
21	O=C(NCc1ccc(F)cc1)C1CCCN1S(=O)(=O)c1cccc2nsnc12 (centres undefined)	8.8%	0.5%	0.5	-6.1%	5.8	-250.6*
22	O=C(Nc1ccc(F)cc1)C1CCCN1S(=O)(=O)c1cccc2nsnc12 (centres undefined)	19.6%	-0.3%	-0.2	0.4%	2.8	2.2
23	CC1CCCCN1CCNC(=O)C1CCN(S(=O)(=O)c2cccc3nsnc23)CC1 (centres undefined)	-2.3%	-1.2%	-34.5*	1.5%	-10.1	13.2
24	Cn1c(SCC(=O)NCc2cccs2)nnc1-c1ccc(O)cc1	9.1%	1.0%	3.7	2.1%	-3.2	9.4

Continued (5 carried over from the part before).
cpd	canonical_smiles	Rango release inh	Rango complex inh	CCT chaperon mod	MmCpn inh	KCNH2 3.1 inh	hERG WT inh
20	CCN(CCCC(=O)c1ccc(F)cc1)CCc1ccccc1	3.8%	0.7%	0.3	-0.3%	-90.1*	u
21	O=C(NCc1ccc(F)cc1)C1CCCN1S(=O)(=O)c1cccc2nsnc12 (centres undefined)	8.8%	0.5%	0.5	-6.1%	5.8	-250.6*
22	O=C(Nc1ccc(F)cc1)C1CCCN1S(=O)(=O)c1cccc2nsnc12 (centres undefined)	19.6%	-0.3%	-0.2	0.4%	2.8	2.2
23	CC1CCCCN1CCNC(=O)C1CCN(S(=O)(=O)c2cccc3nsnc23)CC1 (centres undefined)	-2.3%	-1.2%	-34.5*	1.5%	-10.1	13.2
24	Cn1c(SCC(=O)NCc2cccs2)nnc1-c1ccc(O)cc1	9.1%	1.0%	3.7	2.1%	-3.2	9.4
25	COc1ccc(C(=O)N2CCCCC2c2cc(C(=O)NCc3cccnc3)no2)cc1 (centres undefined)	x	x	2.5	x	x	x
26	O=S(=O)(Nc1cccc2c1CCCC2)c1ccc(Cl)cc1	6.5%	-0.2%	0.2	1.3%	-70.8*	-5.6
27	CCOc1cc(/C=C2\CCC/C(=C\c3cc(Cl)c(O)c(OCC)c3)C2=O)cc(Cl)c1O	6.51µM*	u	2.1	0.9%	-22.7	-14.8
28	CCOc1cc(/C=C2\CN(C)C/C(=C\c3ccc(O)c(OCC)c3)C2=O)ccc1O	-0.6%	u	0.1	-6.6%	-20.9	13.1
29	CCN1C(=NCCN2CCOCC2)N[C@@H](CCc2ccccc2)C(C(=O)OC)=C1C	x	x	x	-2.7%	x	x
30	CCN(CC)CCCCN1c2ccccc2Sc2ccccc21	0.1%	1.1%	-0.1	0.9%	-72.5*	9.4
31	CCN(CC)CC(=O)N1c2ccccc2Sc2ccccc21	0.8%	6.1%	-0.7	1.0%	17.8	2.3
32	S=C(NCCc1ccccc1)N1CCN(C(=S)NCCc2ccccc2)CC1	1.0%	8.1%	-0.8	3.3%	-10.0	4.3
33	S=C(NCCc1ccccc1)N1CCN(C2CCCCC2)CC1	7.3%	-1.0%	-2.0	0.9%	-92.7*	16.1
34	COc1ccccc1CNC(=O)COC(=O)C1CCN(S(=O)(=O)c2ccccc2)CC1	0.2%	-3.5%	-3.5	1.5%	5.6	0.3
35	CCN(CC)C(=O)C1=C(C)N(Cc2ccc(F)cc2)C(=O)C(CC(=O)NCc2ccco2)C1 (centres undefined)	x	x	0.7	x	9.3	-0.9
36	Oc1c(Cl)cc(Cl)cc1/C=N/Nc1ncc(Br)cn1	-12.7%	u	-1.0	1.6%	0.8	-9.5
37	Cc1ccc(N=Cc2cc(Cl)cc(Cl)c2O)nc1	u	u	-1.3	-1.2%	1.6	-333.3*
38	CC(C)n1c(O)c(N=NC(=O)Cn2ccc(C(F)(F)F)n2)c2ccccc21	0.7%	-0.6%	0.5	-1.0%	17.8	9.0
39	c1ccc(-c2nc3ccccn3c2NC2CCCC2)nc1	-8.9%	2.9%	-1.2	-4.3%	-6.9	-15.0
40	Cc1ccn2c(NC3CCCC3)c(-c3ccccn3)nc2c1	-0.4%	0.4%	-93.2*	-3.2%	-24.2	-10.9
41	O=C(NCCc1ccc(Cl)cc1)/C(=C/c1cccnc1)NC(=O)c1ccccc1	2.7%	-3.4%	-2.4	0.1%	20.3	50.3
42	CC(=NCCCn1ccnc1)c1c(C)[nH]n(-c2ccc([N+](=O)[O-])cc2)c1=O	0.0%	4.5%	-3.0	39.8µM*	3.8	3.7
